Target: T1, Drosophila CG5735 protein (Drosophila neuronal CPEB) (Drosophila, UniProt Q9VSR3, in part)
T1 construct: also called CG5735RA; Drosophila CPEB
Assay: GST pull-down from total Drosophila protein extract, Western blot with anti-CG5735

Chains of the proteins cited; added tags and fusions are not shown. A line that says so, or that is headed by a name, gives the form on record, which may keep a tag or linker.
UniProt Q9VSR3, other isoform, or with tags, fused parts or gaps: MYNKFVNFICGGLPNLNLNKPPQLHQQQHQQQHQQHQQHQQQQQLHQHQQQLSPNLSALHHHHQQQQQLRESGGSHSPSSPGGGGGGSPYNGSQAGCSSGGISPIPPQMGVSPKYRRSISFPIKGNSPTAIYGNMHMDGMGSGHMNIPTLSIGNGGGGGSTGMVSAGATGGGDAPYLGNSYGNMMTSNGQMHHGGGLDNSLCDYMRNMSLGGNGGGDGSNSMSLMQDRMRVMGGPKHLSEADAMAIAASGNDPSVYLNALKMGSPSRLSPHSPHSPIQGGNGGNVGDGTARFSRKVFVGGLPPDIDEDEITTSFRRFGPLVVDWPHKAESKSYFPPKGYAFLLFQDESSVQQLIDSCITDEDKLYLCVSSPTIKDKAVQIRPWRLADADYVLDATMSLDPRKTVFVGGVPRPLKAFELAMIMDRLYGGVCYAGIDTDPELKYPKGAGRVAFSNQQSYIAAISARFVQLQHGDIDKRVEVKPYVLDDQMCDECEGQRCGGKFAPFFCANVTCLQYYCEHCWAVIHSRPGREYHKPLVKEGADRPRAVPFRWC

B1: recombinant GST (other, UniProt P08515 1-218, looked up)
chain: MSPILGYWKIKGLVQPTRLLLEYLEEKYEEHLYERDEGDKWRNKKFELGLEFPNLPYYIDGDVKLTQSMAIIRYIADKHNMLGGCPKERAEISMLEGAVLDIRYGVSRIAYSKDFETLKVDFLSKLPEMLKMFEDRLCHKTYLNGDHVTHPDFMLYDALDVVLYMDPMCLDAFPKLVCFKKRIEAIPQIDKYLKSSKYIAWPLQGWQATFGGGDHPPK
notes: also called GST alone
  binding result: no binding

From patent US8951734 (TRUSTEES OF COLUMBIA UNIVERSITY IN THE CITY OF NEW YORK, dated 2015)
